The target of the experiment is Lanosterol 14-alpha-demethylase (Trypanosoma brucei brucei (strain 927/4 GUTat10.1), UniProt Q385E8). The experiment can be described thus: Inhibition Assay. To be noted: pH 6.

Amino acid sequences for entries named in this document (tags omitted).
UniProt Q385E8, whole entry: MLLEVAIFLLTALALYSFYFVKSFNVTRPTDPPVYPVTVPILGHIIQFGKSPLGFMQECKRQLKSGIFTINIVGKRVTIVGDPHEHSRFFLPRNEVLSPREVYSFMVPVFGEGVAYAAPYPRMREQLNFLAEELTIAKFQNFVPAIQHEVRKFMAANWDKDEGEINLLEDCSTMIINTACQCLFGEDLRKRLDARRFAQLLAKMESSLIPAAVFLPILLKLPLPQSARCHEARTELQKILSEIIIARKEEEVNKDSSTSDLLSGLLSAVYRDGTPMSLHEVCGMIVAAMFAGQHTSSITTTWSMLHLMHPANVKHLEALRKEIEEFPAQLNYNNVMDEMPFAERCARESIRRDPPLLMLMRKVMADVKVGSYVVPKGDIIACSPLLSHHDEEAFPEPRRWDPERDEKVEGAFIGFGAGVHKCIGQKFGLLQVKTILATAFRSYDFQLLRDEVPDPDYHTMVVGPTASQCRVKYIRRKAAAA

The term Kd denotes the constant that tells how readily two partners part at equilibrium. Low readings indicate tighter binding, high ones weaker binding. As to `OC(Cn1cncn1)(Cn1cncn1)c1ccc(F)cc1F` [Fungata], the Kd was found to be 0.34 µM.
